Source: PMC13070491, “Single-nucleus transcriptomics, pharmacokinetics, and pharmacodynamics of CDK4/6 and mTOR inhibition in a Phase 0/1 trial of recurrent high-grade glioma” (Neuro-Oncology, 2025)

System: GB126, GB239 and GB86 patient-derived cell lines
Test: In vitro single-cell RNA sequencing, analyses across the cell lines (pseudobulk differential gene expression, GSEA, non-cycling cells)
Format: cell-based, human
Protocol: Patient-derived glioma stem cell lines (GSCs; GB126, GB86, and GB239) were established from resected GBM tumor tissue. Cell lines were genetically profiled for mutations and copy number aberrations using the IvySeq custom gene panel. […] GB239 was derived from a tumor sample included in this Phase 0 trial (tumor sample: 100-0039). All human GSCs were cultured as described previously.[12]
Following the fifth day of drug exposure, cells were harvested, cryopreserved to be processed at a later point, or immediately processed for single-cell RNA sequencing (10x Genomics, 3’ version 3). The single-cell RNA sequencing data were then processed via cellranger count and Seurat. Briefly, cells were filtered out based on the following criteria: minimum number of genes detected >500 and <10 000 with a maximum percentage of mitochondrial genes set to 10%. Statistical assessment was made between the malignant proportions of each cell state using a 2-sided paired t-test.
Descriptive statistics of the clinical data are included in Table 1. Comparisons between groups were conducted using a 2-sided or paired 2-sided t-test, where indicated. P < .05 was considered significant. Multiple hypothesis test corrections (ie, false discovery rate correction) were applied for snRNAseq pseudobulk differential expression analysis.

With CN(C)C(=O)c1cc2cnc(Nc3ccc(N4CCNCC4)cn3)nc2n1C1CCCC1 [ribo] the log2FoldChange (feature TP53AIP1, ribociclib versus control (DMSO)) was 1.033, the log2FoldChange (feature TRIM38, ribociclib versus control (DMSO)) was 1.064 and the log2FoldChange (feature TRPC7-AS1, ribociclib versus control (DMSO)) was 1.034. For the same compound, the log2FoldChange (feature TSGA10IP, ribociclib versus control (DMSO)) was 1.063, the log2FoldChange (feature TTC29, ribociclib versus control (DMSO)) was 1.023 and the log2FoldChange (feature TYRP1, ribociclib versus control (DMSO)) was 1.296. For the same compound, the log2FoldChange (feature WNK4, ribociclib versus control (DMSO)) was 1.104, the log2FoldChange (feature WNT2, ribociclib versus control (DMSO)) was 1.245 and the log2FoldChange (feature Z80897.1, ribociclib versus control (DMSO)) was 1.151. For the same compound, the log2FoldChange (feature Z82195.3, ribociclib versus control (DMSO)) was 1.024, the log2FoldChange (feature Z93403.1, ribociclib versus control (DMSO)) was 1.02 and the log2FoldChange (feature Z99774.1, ribociclib versus control (DMSO)) was 1.047. It also gave a log2FoldChange (feature ZBTB20-AS2, ribociclib versus control (DMSO)) of 1.2872, a log2FoldChange (feature ZBTB20-AS3, ribociclib versus control (DMSO)) of 1.215 and a log2FoldChange (feature ZG16B, ribociclib versus control (DMSO)) of 1.184. For the same compound, the log2FoldChange (feature ZNF630-AS1, ribociclib versus control (DMSO)) was 1.111, the “log2FoldChange AC002472.1” value (gene AC002472.1, ribociclib versus control (DMSO)) was 1.35 and the “log2FoldChange AC004470.1” value (gene AC004470.1, ribociclib versus control (DMSO)) was 1.412. For the same compound, the log2FoldChange (gene AC005180.2, ribociclib versus control (DMSO)) was -1.1, the “log2FoldChange AC007317.1” value (gene AC007317.1, ribociclib versus control (DMSO)) was 1.365 and the log2FoldChange (gene AC007952.4, ribociclib versus control (DMSO)) was -1.0063. The “log2FoldChange AC008397.1” value (gene AC008397.1, ribociclib versus control (DMSO)) was 1.402, the log2FoldChange (gene AC008543.1, ribociclib versus control (DMSO)) was -1.176 and the log2FoldChange (gene AC008750.7, ribociclib versus control (DMSO)) was -1.123. The log2FoldChange (gene AC010173.1, ribociclib versus control (DMSO)) was -1.123, the “log2FoldChange AC010395.1” value (gene AC010395.1, ribociclib versus control (DMSO)) was 1.368 and the “log2FoldChange AC010503.1” value (gene AC010503.1, ribociclib versus control (DMSO)) was 1.351. The log2FoldChange (gene AC012073.1, ribociclib versus control (DMSO)) was -1.039, the log2FoldChange (gene AC017006.2, ribociclib versus control (DMSO)) was 1.009 and the “log2FoldChange AC018638.6” value (gene AC018638.6, ribociclib versus control (DMSO)) was 1.414. For the same compound, the log2FoldChange (gene AC020551.1, ribociclib versus control (DMSO)) was 1.009, the log2FoldChange (gene AC022182.2, ribociclib versus control (DMSO)) was 1.017 and the “log2FoldChange AC022816.1” value (gene AC022816.1, ribociclib versus control (DMSO)) was 1.4. The “log2FoldChange AC023282.1” value (gene AC023282.1, ribociclib versus control (DMSO)) was 1.352, the “log2FoldChange AC024382.1” value (gene AC024382.1, ribociclib versus control (DMSO)) was 1.406 and the log2FoldChange (gene AC024901.1, ribociclib versus control (DMSO)) was 1. The “log2FoldChange AC024996.1” value (gene AC024996.1, ribociclib versus control (DMSO)) was 1.387, the log2FoldChange (gene AC051619.8, ribociclib versus control (DMSO)) was -1.008 and the log2FoldChange (gene AC068633.1, ribociclib versus control (DMSO)) was 1.016. The log2FoldChange (gene AC078785.2, ribociclib versus control (DMSO)) was 1.014, the “log2FoldChange AC079304.1” value (gene AC079304.1, ribociclib versus control (DMSO)) was 1.388 and the “log2FoldChange AC079382.2” value (gene AC079382.2, ribociclib versus control (DMSO)) was 1.354. The “log2FoldChange AC079822.1” value (gene AC079822.1, ribociclib versus control (DMSO)) was 1.431, the “log2FoldChange AC083837.1” value (gene AC083837.1, ribociclib versus control (DMSO)) was 1.339 and the log2FoldChange (gene AC090192.2, ribociclib versus control (DMSO)) was 1.011. The “log2FoldChange AC090791.1” value (gene AC090791.1, ribociclib versus control (DMSO)) was 1.427, the “log2FoldChange AC091979.1” value (gene AC091979.1, ribociclib versus control (DMSO)) was 1.343 and the “log2FoldChange AC092155.1” value (gene AC092155.1, ribociclib versus control (DMSO)) was 1.397. The log2FoldChange (gene AC097515.1, ribociclib versus control (DMSO)) was 1.0019, the “log2FoldChange AC099670.3” value (gene AC099670.3, ribociclib versus control (DMSO)) was 1.409 and the log2FoldChange (gene AC104825.1, ribociclib versus control (DMSO)) was 1.004. For the same compound, the log2FoldChange (gene AC106820.6, ribociclib versus control (DMSO)) was -1.037, the log2FoldChange (gene AC109347.2, ribociclib versus control (DMSO)) was -1.1248 and the log2FoldChange (gene AC110058.1, ribociclib versus control (DMSO)) was 1.015. For the same compound, the “log2FoldChange AC131212.1” value (gene AC131212.1, ribociclib versus control (DMSO)) was 1.427, the log2FoldChange (gene AC137561.1, ribociclib versus control (DMSO)) was 1.012 and the log2FoldChange (gene AC138647.1, ribociclib versus control (DMSO)) was -1.219. The log2FoldChange (gene AC145212.1, ribociclib versus control (DMSO)) was 1.01, the log2FoldChange (gene AC244517.1, ribociclib versus control (DMSO)) was 1.017 and the “log2FoldChange AC244636.3” value (gene AC244636.3, ribociclib versus control (DMSO)) was 1.403. The log2FoldChange (gene ADAMTS9-AS1, ribociclib versus control (DMSO)) was 1.0086, the log2FoldChange (gene AGBL5-AS1, ribociclib versus control (DMSO)) was -1.023 and the log2FoldChange (gene AGT, ribociclib versus control (DMSO)) was 1.003. For the same compound, the “log2FoldChange AL022316.1” value (gene AL022316.1, ribociclib versus control (DMSO)) was 1.386, the log2FoldChange (gene AL022341.2, ribociclib versus control (DMSO)) was -1.05 and the log2FoldChange (gene AL031710.2, ribociclib versus control (DMSO)) was -1.373. The “log2FoldChange AL049836.1” value (gene AL049836.1, ribociclib versus control (DMSO)) was 1.378, the “log2FoldChange AL049838.1” value (gene AL049838.1, ribociclib versus control (DMSO)) was 1.369 and the log2FoldChange (gene AL133215.2, ribociclib versus control (DMSO)) was -1.053. For the same compound, the “log2FoldChange AL139081.1” value (gene AL139081.1, ribociclib versus control (DMSO)) was 1.4212, the “log2FoldChange AL356010.2” value (gene AL356010.2, ribociclib versus control (DMSO)) was 1.378 and the log2FoldChange (gene AL356481.3, ribociclib versus control (DMSO)) was -1.0513. The “log2FoldChange AL590235.2” value (gene AL590235.2, ribociclib versus control (DMSO)) was 1.403, the “log2FoldChange AL592430.1” value (gene AL592430.1, ribociclib versus control (DMSO)) was 1.383 and the “log2FoldChange AL929091.1” value (gene AL929091.1, ribociclib versus control (DMSO)) was 1.363. The log2FoldChange (gene ANP32B, ribociclib versus control (DMSO)) was -1.006, the log2FoldChange (gene AP000866.5, ribociclib versus control (DMSO)) was 1.003 and the log2FoldChange (gene AP000944.7, ribociclib versus control (DMSO)) was -1.045. For the same compound, the log2FoldChange (gene AP001172.2, ribociclib versus control (DMSO)) was 1.008, the “log2FoldChange AP003464.1” value (gene AP003464.1, ribociclib versus control (DMSO)) was 1.389 and the “log2FoldChange AP003486.2” value (gene AP003486.2, ribociclib versus control (DMSO)) was 1.428. The log2FoldChange (gene ARHGAP11B, ribociclib versus control (DMSO)) was -1.378, the log2FoldChange (gene ARHGAP33, ribociclib versus control (DMSO)) was -1.179 and the log2FoldChange (gene ARHGDIG, ribociclib versus control (DMSO)) was 1.01. The log2FoldChange (gene AS3MT, ribociclib versus control (DMSO)) was -1.024, the “log2FoldChange ATP13A4-AS1” value (gene ATP13A4-AS1, ribociclib versus control (DMSO)) was 1.408 and the log2FoldChange (gene B4GALNT1, ribociclib versus control (DMSO)) was -1.03. The log2FoldChange (gene BAIAP2L1, ribociclib versus control (DMSO)) was -1.14, the “log2FoldChange CA10” value (gene CA10, ribociclib versus control (DMSO)) was 1.3411 and the log2FoldChange (gene CACNG5, ribociclib versus control (DMSO)) was -1.03. The “log2FoldChange CADM2-AS1” value (gene CADM2-AS1, ribociclib versus control (DMSO)) was 1.356, the log2FoldChange (gene CARHSP1, ribociclib versus control (DMSO)) was -1.0365 and the “log2FoldChange CCDC155” value (gene CCDC155, ribociclib versus control (DMSO)) was 1.343. The log2FoldChange (gene CCN4, ribociclib versus control (DMSO)) was 1.016, the log2FoldChange (gene CDC7, ribociclib versus control (DMSO)) was -1.142 and the “log2FoldChange CDSN” value (gene CDSN, ribociclib versus control (DMSO)) was 1.422. The log2FoldChange (gene CENPI, ribociclib versus control (DMSO)) was -1.178, the log2FoldChange (gene CES3, ribociclib versus control (DMSO)) was 1.002 and the log2FoldChange (gene CHAF1A, ribociclib versus control (DMSO)) was -1.142.
